The target in one experiment is CDK7 (Homo sapiens, UniProt P50613). As to the kind of experiment: NanoBRET live-cell target engagement, NanoLuc-CDK7 in HEK-293. To be noted: read-out: Inhibition at 10µM (%), CDK7. In general terms: BRET reads energy transfer from a luciferase to a nearby fluorophore.
The target of the next experiment is CDK5/CDK5R1 (Homo sapiens, UniProt Q00535). As to the kind of experiment: NanoBRET live-cell target engagement, CDK5-NanoLuc/CDK5R1 in HEK-293.
The target of a further experiment is CDK1/Cyclin E1 (Homo sapiens, UniProt P06493). The experiment can be described thus: NanoBRET live-cell target engagement, CDK1-NanoLuc/Cyclin E1 in HEK-293.
In a further experiment the target is CDK2/Cyclin E1 (Homo sapiens, UniProt P24941). The experiment can be described thus: NanoBRET live-cell target engagement, CDK2-NanoLuc/Cyclin E1 in HEK-293. To be noted: read-out: CDK2/E1 Inhibition at 10µM (%), 10µM.
The next experiment deals with CDK3/Cyclin E1 (Homo sapiens, UniProt Q00526). As to the kind of experiment: NanoBRET live-cell target engagement, CDK3-NanoLuc/Cyclin E1 in HEK-293. As to conditions: read-out: CDK3/E1 Inhibition at 10µM (%), 10µM.
For another experiment, the target named is CDK14/Cyclin Y (Homo sapiens, UniProt O94921). As to the kind of experiment: NanoBRET live-cell target engagement, CDK14-NanoLuc/Cyclin Y in HEK-293.
A further experiment addresses CDK15/Cyclin Y (Homo sapiens, UniProt Q96Q40). As to the kind of experiment: NanoBRET live-cell target engagement, NanoLuc-CDK15/Cyclin Y in HEK-293. To be noted: read-out: CDK15/Y Inhibition at 10µM (%), 10µM.
For the next experiment, the target named is CDK16/Cyclin Y (Homo sapiens, UniProt Q00536). The experiment can be described thus: NanoBRET live-cell target engagement, CDK16-NanoLuc/Cyclin Y in HEK-293. As to conditions: read-out: CDK16/Y Inhibition at 10µM (%), 10µM.
In another experiment the target is CDK17/Cyclin Y (Homo sapiens, UniProt Q00537). The experiment can be described thus: NanoBRET live-cell target engagement, CDK17-NanoLuc/Cyclin Y in HEK-293. As to conditions: read-out: CDK17/Y Inhibition at 10µM (%), 10µM.
In the next experiment the target is CDK18/Cyclin Y (Homo sapiens, UniProt Q07002). The experiment can be described thus: NanoBRET live-cell target engagement, CDK18-NanoLuc/Cyclin Y in HEK-293. As to conditions: read-out: CDK18/Y Inhibition at 10µM (%), 10µM.
The target of another experiment is CDK9/Cyclin K (Homo sapiens, UniProt P50750). The experiment can be described thus: NanoBRET live-cell target engagement, NanoLuc-CDK9/Cyclin K in HEK-293. Format: binding. To be noted: CDK9/K IC50 (nM).
Where [1] appears, read: read-out: Inhibition at 10µM (%).

Chains of the proteins cited; added tags and fusions are not shown. Lines headed by an entry give the natural chain unless they say otherwise; changes in a name come on top.
UniProt P50613: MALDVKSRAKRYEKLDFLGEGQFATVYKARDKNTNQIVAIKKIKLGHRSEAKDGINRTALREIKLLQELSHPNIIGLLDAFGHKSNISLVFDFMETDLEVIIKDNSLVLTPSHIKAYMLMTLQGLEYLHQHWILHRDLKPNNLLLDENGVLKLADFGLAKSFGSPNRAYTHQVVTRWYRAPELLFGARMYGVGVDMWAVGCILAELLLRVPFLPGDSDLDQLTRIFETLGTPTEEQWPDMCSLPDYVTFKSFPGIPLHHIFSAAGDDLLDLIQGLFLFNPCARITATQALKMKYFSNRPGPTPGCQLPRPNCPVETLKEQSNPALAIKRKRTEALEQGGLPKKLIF
UniProt Q00535, whole entry: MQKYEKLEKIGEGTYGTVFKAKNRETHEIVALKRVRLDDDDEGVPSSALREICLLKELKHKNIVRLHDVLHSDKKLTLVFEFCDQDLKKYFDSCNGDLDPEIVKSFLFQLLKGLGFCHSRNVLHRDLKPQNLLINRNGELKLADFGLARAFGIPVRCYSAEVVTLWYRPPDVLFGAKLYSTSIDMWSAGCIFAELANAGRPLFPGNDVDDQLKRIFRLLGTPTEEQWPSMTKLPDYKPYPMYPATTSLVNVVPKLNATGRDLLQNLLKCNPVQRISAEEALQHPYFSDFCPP
UniProt P06493, whole entry: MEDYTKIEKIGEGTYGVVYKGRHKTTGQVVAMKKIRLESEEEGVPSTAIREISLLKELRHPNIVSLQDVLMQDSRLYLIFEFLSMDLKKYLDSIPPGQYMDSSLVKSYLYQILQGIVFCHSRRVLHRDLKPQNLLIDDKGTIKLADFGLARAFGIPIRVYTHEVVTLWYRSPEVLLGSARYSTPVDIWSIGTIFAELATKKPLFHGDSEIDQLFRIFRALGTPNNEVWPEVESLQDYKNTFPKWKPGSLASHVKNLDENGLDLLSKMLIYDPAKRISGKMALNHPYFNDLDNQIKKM
UniProt Q00526: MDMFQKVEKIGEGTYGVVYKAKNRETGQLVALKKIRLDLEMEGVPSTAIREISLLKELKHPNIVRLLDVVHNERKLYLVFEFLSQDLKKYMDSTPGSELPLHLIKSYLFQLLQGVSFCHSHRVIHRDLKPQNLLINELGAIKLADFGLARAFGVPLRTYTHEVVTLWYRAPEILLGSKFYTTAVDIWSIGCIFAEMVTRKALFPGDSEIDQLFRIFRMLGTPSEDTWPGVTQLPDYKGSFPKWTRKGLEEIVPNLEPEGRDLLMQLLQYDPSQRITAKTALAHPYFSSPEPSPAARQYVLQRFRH
UniProt O94921: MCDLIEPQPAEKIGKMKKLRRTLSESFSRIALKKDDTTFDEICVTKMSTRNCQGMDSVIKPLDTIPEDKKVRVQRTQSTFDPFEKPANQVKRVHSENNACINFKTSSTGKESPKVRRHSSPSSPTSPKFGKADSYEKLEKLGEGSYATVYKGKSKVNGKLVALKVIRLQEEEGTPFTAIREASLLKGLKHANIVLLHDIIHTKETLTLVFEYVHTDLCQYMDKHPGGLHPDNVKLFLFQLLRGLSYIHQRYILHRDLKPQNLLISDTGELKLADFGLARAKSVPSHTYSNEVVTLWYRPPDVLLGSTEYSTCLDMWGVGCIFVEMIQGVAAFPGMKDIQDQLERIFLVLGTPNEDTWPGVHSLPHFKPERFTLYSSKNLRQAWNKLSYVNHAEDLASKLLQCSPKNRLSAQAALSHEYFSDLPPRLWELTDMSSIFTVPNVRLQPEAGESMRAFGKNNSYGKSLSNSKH
UniProt Q96Q40: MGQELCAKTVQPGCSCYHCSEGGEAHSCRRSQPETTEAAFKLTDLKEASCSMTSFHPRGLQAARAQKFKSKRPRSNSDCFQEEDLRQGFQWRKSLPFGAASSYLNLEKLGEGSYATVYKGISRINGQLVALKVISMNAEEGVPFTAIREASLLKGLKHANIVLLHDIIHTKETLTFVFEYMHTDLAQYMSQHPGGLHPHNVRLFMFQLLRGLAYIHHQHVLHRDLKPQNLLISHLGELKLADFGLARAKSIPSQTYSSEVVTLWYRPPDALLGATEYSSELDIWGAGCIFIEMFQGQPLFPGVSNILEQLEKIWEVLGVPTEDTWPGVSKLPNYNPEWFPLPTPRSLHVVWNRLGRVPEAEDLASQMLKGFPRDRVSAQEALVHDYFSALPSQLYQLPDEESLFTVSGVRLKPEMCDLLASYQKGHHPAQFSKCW
UniProt Q00536: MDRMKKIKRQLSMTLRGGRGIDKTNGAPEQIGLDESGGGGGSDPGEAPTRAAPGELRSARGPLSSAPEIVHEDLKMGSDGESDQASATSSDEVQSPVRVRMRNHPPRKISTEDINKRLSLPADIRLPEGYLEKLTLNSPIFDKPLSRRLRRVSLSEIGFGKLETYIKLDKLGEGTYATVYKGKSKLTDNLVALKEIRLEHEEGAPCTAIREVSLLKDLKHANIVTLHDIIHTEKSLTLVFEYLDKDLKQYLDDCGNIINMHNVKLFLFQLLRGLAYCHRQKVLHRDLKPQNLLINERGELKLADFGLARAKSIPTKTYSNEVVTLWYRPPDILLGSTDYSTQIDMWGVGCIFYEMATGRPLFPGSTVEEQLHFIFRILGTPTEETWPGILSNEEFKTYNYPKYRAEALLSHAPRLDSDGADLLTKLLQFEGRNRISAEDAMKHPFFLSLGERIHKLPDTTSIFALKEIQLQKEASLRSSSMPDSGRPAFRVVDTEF
UniProt Q00537: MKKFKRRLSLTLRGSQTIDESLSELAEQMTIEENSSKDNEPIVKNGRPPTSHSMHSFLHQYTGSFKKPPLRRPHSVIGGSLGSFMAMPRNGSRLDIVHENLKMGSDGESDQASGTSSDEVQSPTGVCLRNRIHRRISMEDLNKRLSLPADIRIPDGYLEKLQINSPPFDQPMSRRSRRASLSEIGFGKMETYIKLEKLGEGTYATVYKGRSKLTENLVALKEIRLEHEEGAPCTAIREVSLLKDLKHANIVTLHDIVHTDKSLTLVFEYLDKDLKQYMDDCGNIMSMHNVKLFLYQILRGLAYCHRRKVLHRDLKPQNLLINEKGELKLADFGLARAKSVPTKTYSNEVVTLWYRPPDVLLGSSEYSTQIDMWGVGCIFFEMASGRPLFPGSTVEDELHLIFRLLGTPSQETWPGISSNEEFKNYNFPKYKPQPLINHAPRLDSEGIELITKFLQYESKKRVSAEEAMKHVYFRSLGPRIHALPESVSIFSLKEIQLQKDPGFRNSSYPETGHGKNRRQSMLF
UniProt Q07002: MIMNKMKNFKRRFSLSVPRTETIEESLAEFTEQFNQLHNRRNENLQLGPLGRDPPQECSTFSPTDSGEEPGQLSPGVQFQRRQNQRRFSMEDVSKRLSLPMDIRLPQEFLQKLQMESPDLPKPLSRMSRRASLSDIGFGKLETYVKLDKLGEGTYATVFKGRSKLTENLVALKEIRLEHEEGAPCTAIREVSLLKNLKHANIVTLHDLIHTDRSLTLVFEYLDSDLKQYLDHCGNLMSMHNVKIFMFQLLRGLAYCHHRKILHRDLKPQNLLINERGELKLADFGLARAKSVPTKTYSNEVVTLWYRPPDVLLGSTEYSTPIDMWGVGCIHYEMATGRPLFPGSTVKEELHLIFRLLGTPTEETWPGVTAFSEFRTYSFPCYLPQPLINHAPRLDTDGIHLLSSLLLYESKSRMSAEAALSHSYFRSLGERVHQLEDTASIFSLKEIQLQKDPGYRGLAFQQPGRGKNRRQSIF
UniProt P50750, whole entry: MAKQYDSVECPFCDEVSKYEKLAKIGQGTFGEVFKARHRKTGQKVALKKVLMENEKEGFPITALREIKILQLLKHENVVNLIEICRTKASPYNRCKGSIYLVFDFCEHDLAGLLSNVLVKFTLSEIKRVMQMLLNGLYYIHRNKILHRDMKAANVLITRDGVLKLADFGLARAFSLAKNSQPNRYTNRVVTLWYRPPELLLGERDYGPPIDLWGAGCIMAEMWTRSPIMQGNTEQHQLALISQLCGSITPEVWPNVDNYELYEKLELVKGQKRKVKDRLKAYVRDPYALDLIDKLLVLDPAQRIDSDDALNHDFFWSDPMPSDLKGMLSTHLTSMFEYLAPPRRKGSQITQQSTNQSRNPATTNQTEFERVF

Values joined by “and” are separate entries in the source; they are usually repeats but may differ in a detail not shown here. Equal values may be shown once. Read-outs that look alike come from different tables or passages of the source.

Usually Inhibition stands for the change of the read-out against control, counted positive when it falls. High values mean strong suppression, low ones little suppression. What is called IC50 is the concentration that gives 50% inhibition. A higher IC50 goes with a need for much substance.

Regarding `NS(=O)(=O)c1ccc(Nc2nc(OCC3CCCCC3)c3nc[nH]c3n2)cc1` [NU6102], the inhibition at 10 µM at CDK7 (average) was found to be 45.2%; at CDK7 (experiment 1) it was 16.7%; on CDK7 (experiment 2), 73.8%; on CDK5/CDK5R1 (setting [1]) it was 82.2%; at CDK1/Cyclin E1 (setting [1]) it was 87.3%. Also, the “Inhibition at 10µM (%)” value on CDK5/CDK5R1 (10 µM) was 66.8% and 74.5%; on CDK1/Cyclin E1 (10 µM), 96.1% and 91.7%.

On to `CN(C)C(=O)c1cc2cnc(Nc3ccc(N4CCNCC4)cn3)nc2n1C1CCCC1`, for which the inhibition at 10 µM on CDK1/Cyclin E1 (read-out: CDK1/E1 Inhibition at 10µM (%), 10µM, average of experiments) is 11.3%; at CDK1/Cyclin E1 (read-out: CDK1/E1 Inhibition at 10µM (%), 10µM, independent experiment 1), 4.6%; on CDK1/Cyclin E1 (read-out: CDK1/E1 Inhibition at 10µM (%), 10µM, independent experiment 2), 18%; at CDK2/Cyclin E1 (average of experiments), -5.1%; at CDK2/Cyclin E1 (independent experiment 1), -14.3%; on CDK2/Cyclin E1 (independent experiment 2) it was 4%. Also, the inhibition at 10 µM at CDK3/Cyclin E1 (average of experiments) is 8%; at CDK3/Cyclin E1 (independent experiment 1), 7.3%; at CDK3/Cyclin E1 (independent experiment 2), 8.6%; on CDK14/Cyclin Y (read-out: CDK14/Y Inhibition at 10µM (%), 10µM, average of experiments), 2.2%; on CDK14/Cyclin Y (read-out: CDK14/Y Inhibition at 10µM (%), 10µM, independent experiment 1) it was 7.5%; at CDK14/Cyclin Y (read-out: CDK14/Y Inhibition at 10µM (%), 10µM, independent experiment 2), -3.1%. In addition, the inhibition at 10 µM was found to be 9.8% at CDK15/Cyclin Y (average of experiments); 0.338% at CDK15/Cyclin Y (independent experiment 1); 19.3% on CDK15/Cyclin Y (independent experiment 2); 34.3% on CDK16/Cyclin Y (independent experiment 1); 23.2% on CDK16/Cyclin Y (independent experiment 2); 25.8% at CDK17/Cyclin Y (average of experiments). In addition, the inhibition at 10 µM at CDK17/Cyclin Y (independent experiment 1) came out at 28.9%; at CDK17/Cyclin Y (independent experiment 2), 22.6%; at CDK18/Cyclin Y (average of experiments), 10.6%; on CDK18/Cyclin Y (independent experiment 1), 10.4%; at CDK18/Cyclin Y (independent experiment 2), 10.8%.

Take `CN1C/C=C/CCOc2cccc(c2)-c2ccnc(n2)Nc2cccc(c2)C1` [SB1317]: the IC50 at CDK9/Cyclin K was 11 nM and 7.6 nM and 9.3 nM.

With `CCN1CCN(Cc2ccc(Nc3ncc(F)c(-c4cc(F)c5nc(C)n(C(C)C)c5c4)n3)nc2)CC1` [Abemaciclib], the IC50 against CDK14/Cyclin Y (IC50 (nM) Average*, CDK14/Y, n=3 average ± SEM, n=2 average to 2 significant figures) worked out at 440 ± 90 nM; against CDK14/Cyclin Y (IC50 (nM) Replicate 1, CDK14/Y), 296 nM; against CDK14/Cyclin Y (IC50 (nM) Replicate 2, CDK14/Y) it was 420 nM; at CDK14/Cyclin Y (IC50 (nM) Replicate 3, CDK14/Y), 597 nM. The inhibition at 10 µM on CDK14/Cyclin Y (read-out: Inhibition at 10µM (%) Average, CDK14/Y, 10µM, average of replicates) turned out to be 63.2%; at CDK14/Cyclin Y (read-out: Inhibition at 10µM (%) Replicate 1, CDK14/Y, 10µM), 68.9%; on CDK14/Cyclin Y (read-out: Inhibition at 10µM (%) Replicate 2, CDK14/Y, 10µM) it was 57.5%.

The record behind these values is publication PMC7265341 (2020).
